A selection: hits, their analogues and other compounds. The true share with any hit is near 1.8%.
SIRT5 block – sirtuin-5 (human) deacylase inhibition | Q9NXA8 | Purified SirT5, succinyl-peptide AMC, trypsin-coupled fluorescence | inhibition, % at 15 µM | 330,000 tested, 1.1% active; in the data active = inhibition above about 15%; inconclusive = no clear call, values can overlap the other calls
RAD52 inh – RAD52 (human) annealing inhibition; AID 651710; recombinant RAD52 DNA annealing, FRET fluorescence; 360,000 tested, 0.46% active; inhibition, % at 18.7 µM;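 active = every replicate showing at least 50% inhibition; inconclusive = mean inhibition at least 50% but not in every replicate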
AF4-AF9 inh – blocks AF4 peptide binding to human AF9; 350,000 tested, 0.47% active; P42568; AlphaScreen, biotin-AF4 peptide binding to FLAG-AF9; inhibition, % at 10 µM;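 active = every replicate reaching a set inhibition limit, whatever the replicate mean, cut at about 25% in these data; inconclusive = mean inhibition reaches that limit but some replicates miss it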;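 also: 0% = plate neutral control median and 100% = total signal loss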
E-selectin induc – induces E-selectin expression in human endothelial cells; P16581; HUVEC E-selectin immunofluorescence imaging; normalized: neutral wells 0, TNF-alpha wells 100; activation, % at 7.58 µM; 260,000 tested, 0.37% active;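 active = mean E-selectin-positive cell signal at least 10% of the positive control, reached in at least 60% of replicates, without over 20% cell loss; inconclusive = no rule given, readout overlaps actives, possibly toxicity-flagged; inactive = the rest, including those meeting only one limit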
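Assay system: HUVEC primary endothelial cells. Input: 3,000 HUVEC seeded per well. Doses: one compound dose added by pin transfer. Read-out basis: % PE-positive cells. Benchmarks: TNF-alpha high, DMSO low. Detection: immunofluorescence imaging. Buffer or medium: EGM-2, gelatin.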
Yeast UUG start – alters start codon recognition fidelity in yeast. S. cerevisiae UUG-firefly luciferase reporter, luminescence/redox ratio. 350,000 tested, 0.13% active. activity score, % at 18.7 µM. AID 602363;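 active means replicate mean at a twofold rise or more, about +100% in these data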;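 further: firefly luciferase made from a UUG start codon reports start codon fidelity; reporter light over untreated wells divided by growth signal over untreated wells; some hits fall short of that in this replicate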
RAD54 branch – inhibitors of human RAD54 branch migration | inhibition, % at 10.4 µM | AID 602329 | 360,000 tested, 0.14% active | RAD54 Holliday junction branch migration, FAM/BHQ fluorescence | Q92698;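 active = mean normalized replicate activity at least 40 and at least half of replicates scoring 40 or more; inconclusive = only one of the two criteria met; inactive = mean below 40 and under half of replicates reaching 40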;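 also: 0% = median of neutral control wells and 100% = median of positive control wells; inhibitors cause a drop in the FAM fluorescence signal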
* hit, by the source's call; ? = inconclusive; nt = not tested or not shown.

entry | canonical_smiles | SIRT5 block | RAD52 inh | AF4-AF9 inh
1 | CO[C@H]1CN(C)C(=O)c2ccc(NC(=O)c3ccccc3)cc2OC[C@@H](C)NC[C@@H]1C | nt | 0 | -3
2 | Cc1noc(C)c1NC(=O)Nc1cccc2c1O[C@H](CN(C)Cc1ccncc1)[C@@H](C)CN([C@H](C)CO)C2=O | -2 | 10 | -2
3 | COCC(=O)N1[C@H](CO)[C@@H](c2ccccc2)[C@H]1CNC(=O)c1ccccn1 | 7 | -11 | -2
4 | O=C(NC[C@H]1[C@H](c2ccccc2)[C@H](CO)N1Cc1cccnc1)c1ccccn1 | 17* | -16 | 0
5 | COCC(=O)N1[C@H](CO)[C@H](c2ccccc2)[C@@H]1CNC(=O)c1ccccn1 | 15* | -9 | -1
6 | Cc1ccc(SCc2cc(=O)n(C)[nH]2)cc1 | 1 | -6 | -1
7 | Cc1ccc(SCc2cc(=O)n3[nH]c(C)nc3n2)cc1 | nt | nt | nt
8 | CCOC(=O)c1cc(-c2cc(OC)c(OC)c(OC)c2)nc2c1c(=O)[nH]c(=O)n2Cc1ccccc1 | 20* | -9 | -3
9 | C[C@H](CO)N1C[C@H](C)[C@@H](CN(C)C(=O)Cc2ccccc2)Oc2ncc(-c3ccc(F)cc3)cc2C1=O | 3 | 27 | 0
10 | C[C@H](CO)N1C[C@H](C)[C@@H](CN(C)S(=O)(=O)c2ccc(F)cc2)Oc2ccc(NC(=O)CCCCCC(=O)Nc3ccccc3N)cc2C1=O | nt | -40 | -2
11 | Nc1c(Cl)cc(-c2csc(N3CCCC3c3nc4cc(Cl)c(N5CCCCC5)cc4n3CCCO)n2)cc1Cl (stereo not given) | 15* | -18 | 3
12 | O=C(Cn1nnc2ccccc21)NCc1ccccc1 | nt | nt | nt

entry | E-selectin induc | Yeast UUG start | RAD54 branch
1 | 0 | 8 | 9
2 | nt | nt | 3
3 | 0 | 0 | -6
4 | 0 | 6 | -4
5 | 0 | 0 | -5
6 | 82* | nt | nt
7 | nt | -9 | 4
8 | nt | nt | nt
9 | 0 | 8 | 5
10 | -6 | nt | nt
11 | 0 | -18 | 3
12 | nt | -36 | -3

Following part:
entry | canonical_smiles | SIRT5 block | RAD52 inh | AF4-AF9 inh
13 | c1ccc(CCn2nnc3ccccc32)cc1 | 20* | -22 | 11
14 | CN(C)CCCNC(=O)C[C@@H]1CC[C@H]2[C@H](COc3ccc(NC(=O)c4ccc5c(c4)OCO5)cc3C(=O)N2C)O1 | -3 | -2 | 0
15 | N#CC(=C1C=C(Br)C(=NO)C=C1Cl)c1cccc2ccccc12 | 1 | -13 | 26*
16 | COc1ccc(C(C#N)=C2C=C(Cl)C(=NO)C=C2Cl)cc1 | -2 | -16 | 4
17 | C[C@@H]1CN([C@H](C)CO)C(=O)c2cc(NC(=O)CCCN(C)C)ccc2O[C@@H](C)CCCCO[C@H]1CN(C)Cc1ccc(C(F)(F)F)cc1 | 1 | 34 | 2
18 | O=C(COC(=O)/C=C/c1ccc(S(=O)(=O)N2CCOCC2)cc1)NCc1ccc(Cl)cc1 | 25* | -9 | -1
19 | O=C(C1CCC1)N1CC(=O)N2[C@H](CO)[C@H](c3ccc(-c4cccnc4)cc3)[C@@H]2C1 | 0 | -7 | -4
20 | COc1ccc(C)cc1Nc1nc(N)c2cc(OC)c(OC)cc2n1 | nt | nt | nt
21 | CCN1CCN(CCCNC(=O)C2CCN(c3nnc(-n4cccc4)s3)CC2)CC1 | -3 | 45 | 5
22 | CCOc1ccc(NCc2cccn2-c2nnc(N3CCC(C(=O)NCCCN4CC(C)CC(C)C4)CC3)s2)cc1 (stereo not given) | -5 | 18 | 40*
23 | CO[C@H]1CN(C)C(=O)c2cc(NS(=O)(=O)c3cn(C)cn3)ccc2OC[C@H](C)N(C)C[C@H]1C | nt | nt | nt
24 | CO[C@H]1CN(C)C(=O)c2cc(NC(=O)NC3CCCC3)ccc2OC[C@H](C)NC[C@@H]1C | nt | nt | nt

entry | E-selectin induc | Yeast UUG start | RAD54 branch
13 | nt | nt | nt
14 | 0 | 2 | 0
15 | 0 | -15 | 10
16 | 0 | nt | nt
17 | 0 | 9 | 10
18 | 1 | -13 | -1
19 | 0 | nt | nt
20 | nt | 3 | 51*
21 | nt | -14 | -3
22 | nt | -14 | 16
23 | 1 | nt | 5
24 | 0 | nt | nt

(continued)
entry | canonical_smiles | SIRT5 block | RAD52 inh | AF4-AF9 inh
25 | O=C(Oc1c(CN2CCOCC2)cc(Cl)c2cccnc12)c1ccccc1 | -1 | -12 | 3
26 | Oc1c(Cl)cc(CN2CCOCC2)c2cccnc12 | -3 | -15 | 35*
27 | C[C@H]1CN([C@@H](C)CO)C(=O)c2cccc(NS(=O)(=O)c3ccc(Cl)cc3)c2O[C@@H]1CN(C)S(=O)(=O)c1ccc(F)cc1 | nt | nt | nt
28 | Cc1cc(C)cc(NC(=O)C2CCN(S(=O)(=O)c3ccc4[nH]c(=O)ccc4c3)CC2)c1 | -10 | -8 | 3
29 | CCc1cccc(NC(=O)C2CCN(S(=O)(=O)c3ccc4[nH]c(=O)ccc4c3)CC2)c1 | -5 | -31 | 40*
30 | O=C(Nc1cccc(S(=O)(=O)N2CCOCC2)c1)C1CC1 | 23* | -5 | -1
31 | COc1cc(/C=C/C(=O)O)cc(S(=O)(=O)Nc2cc(S(=O)(=O)N3CCCCC3)ccc2Cl)c1OC | nt | -16 | 3
32 | O=C(Nc1cccc(S(=O)(=O)N2CCOCC2)c1)C1CCCC1 | 1 | -12 | -1
33 | COc1cc(/C=C/C(=O)O)cc(S(=O)(=O)Nc2cccc(S(=O)(=O)N3CCOCC3)c2)c1OC | 22* | -17 | ?
34 | Cc1ccc(S(=O)(=O)N2CCOCC2)cc1C(=O)NC1CCCCC1 | nt | nt | nt
35 | Cc1ccc(S(=O)(=O)N2CCOCC2)cc1C(=O)NC1CCCC1 | 0 | -9 | 7
36 | C[C@@H]1CN([C@H](C)CO)C(=O)c2cccc(N(C)C)c2O[C@@H]1CN(C)Cc1ccncc1 | 0 | 4 | -2

entry | E-selectin induc | Yeast UUG start | RAD54 branch
25 | nt | nt | nt
26 | -2 | -41 | 3
27 | 0 | -7 | -11
28 | 0 | -8 | -8
29 | 20 | -9 | -8
30 | 0 | -20 | -4
31 | 0 | 7 | -5
32 | 0 | -12 | -4
33 | -1 | 12 | 3
34 | nt | -7 | -3
35 | 31* | -13 | 6
36 | 0 | -11 | 14

An excerpt from above in order of molar mass, falling:
entry | canonical_smiles | SIRT5 block | RAD52 inh | AF4-AF9 inh
27 | C[C@H]1CN([C@@H](C)CO)C(=O)c2cccc(NS(=O)(=O)c3ccc(Cl)cc3)c2O[C@@H]1CN(C)S(=O)(=O)c1ccc(F)cc1 | nt | nt | nt
28 | Cc1cc(C)cc(NC(=O)C2CCN(S(=O)(=O)c3ccc4[nH]c(=O)ccc4c3)CC2)c1 | -10 | -8 | 3
26 | Oc1c(Cl)cc(CN2CCOCC2)c2cccnc12 | -3 | -15 | 35*

entry | E-selectin induc | Yeast UUG start | RAD54 branch
27 | 0 | -7 | -11
28 | 0 | -8 | -8
26 | -2 | -41 | 3

The list continues:
entry | canonical_smiles | SIRT5 block | RAD52 inh | AF4-AF9 inh
37 | C[C@H](CO)N1C[C@H](C)[C@@H](CN(C)C(=O)Nc2ccc3c(c2)OCO3)Oc2ccc(NC(=O)Cc3cn(C)c4ccccc34)cc2CC1=O | 7 | 14 | 7
38 | CCC(=O)N(C)C[C@@H]1Oc2cc(/C=C/c3ccccc3)ccc2S(=O)(=O)N([C@H](C)CO)C[C@H]1C | 5 | 0 | 15
39 | O=S(=O)(c1ccc2ccccc2c1)N1CCOCC1 | 99* | -6 | -5
40 | COc1ccc2cc(S(=O)(=O)N3CCOCC3)ccc2c1 | nt | nt | nt
41 | O=C(Nc1cccc(O)c1)c1cccc(S(=O)(=O)N2CCCC2)c1 | nt | nt | nt
42 | O=C(Nc1cccc(S(=O)(=O)N2CCCC2)c1)c1cccc(S(=O)(=O)N2CCOCC2)c1 | -1 | -18 | 26*
43 | Cn1ccc2c(N(Cc3ccccc3)Cc3ccccc3)cc3c(c21)C1CCC3C1 (stereo not given) | -1 | -12 | 6
44 | CN(c1cc2c(c3c1ccn3C)C1CCC2C1)C1CCCCC1 (stereo not given) | 0 | 9 | 39*
45 | Cn1ccc2c(N3CCCC3)cc3c(c21)C1CCC3C1 (stereo not given) | -6 | -1 | 30*

entry | E-selectin induc | Yeast UUG start | RAD54 branch
37 | 5 | 29 | -2
38 | 0 | 14 | -3
39 | 0 | nt | nt
40 | nt | -2 | -7
41 | nt | -11 | 6
42 | nt | -4 | -3
43 | 4 | -5 | -2
44 | 0 | -3 | 2
45 | 0 | -15 | -2

Compound activity as filed in PubChem BioAssay.
